Test results from US9469597B2 (dated 2016).

The chains behind the UniProt entries cited, without tags or fusion partners.
UniProt P27338, whole entry: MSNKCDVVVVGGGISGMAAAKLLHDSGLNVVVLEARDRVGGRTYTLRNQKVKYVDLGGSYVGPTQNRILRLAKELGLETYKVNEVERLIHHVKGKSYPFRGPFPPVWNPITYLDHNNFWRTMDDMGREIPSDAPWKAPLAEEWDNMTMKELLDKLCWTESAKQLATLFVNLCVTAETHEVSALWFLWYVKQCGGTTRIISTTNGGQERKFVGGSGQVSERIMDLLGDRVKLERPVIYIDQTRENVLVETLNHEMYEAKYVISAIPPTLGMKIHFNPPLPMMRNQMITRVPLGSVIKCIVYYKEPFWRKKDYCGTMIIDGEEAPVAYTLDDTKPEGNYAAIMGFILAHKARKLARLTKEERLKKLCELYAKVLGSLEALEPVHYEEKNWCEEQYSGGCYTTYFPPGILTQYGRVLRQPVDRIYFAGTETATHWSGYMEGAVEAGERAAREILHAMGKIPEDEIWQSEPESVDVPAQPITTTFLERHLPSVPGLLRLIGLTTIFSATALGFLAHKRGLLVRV

How the values were obtained:
[1] = target: Human recombinant monoamine oxidase MAO-B (Homo sapiens (Human), UniProt P27338); experiment: Monoamine oxidase assay (kynuramine to 4-hydroxyquinoline fluorescence), MAO-B; assay type: biochemical
THP-1 cells = experiment: cells; settings: Homo sapiens, THP-1, 96 h
[2] = read-out: MAO-B (IC50-μM), Table 2

SMILES | IC50 [1, 2] | EC50 (THP-1 cells) | IC50 [1] | Ki [1]
N[C@H]1CC[C@H](N[C@@H]2C[C@H]2c2ccccc2)CC1 [Example 5, (trans)-N1-((1R,2S)-2-phenylcyclopropyl)cyclohexane-1,4-diamine hydrochloride] | > 100 µM |  |  | 
NC1CCC(N[C@H]2C[C@@H]2c2ccc(-c3ccc4cn[nH]c4c3)cc2)CC1 (relative stereo) [Example 42, N1-((trans)-2-(4-(1H-indazol-6-yl)phenyl)cyclopropyl)cyclohexane-1,4-diamine] |  | 0.0824 µM |  | 
NC1CCC(N[C@@H]2C[C@@H]2c2ccccc2)CC1 (relative stereo) [Example 21, N1-((cis)-2-phenylcyclopropyl)cyclohexane-1,4-diamine] | 1.36 µM |  |  | 
Cl.N[C@H]1CC[C@H](N[C@H]2C[C@@H]2c2ccccc2)CC1 [Example 3, (trans)-N1-((1S,2R)-2-phenylcyclopropyl)cyclohexane-1,4-diamine hydrochloride] |  |  | > 100 µM | > 40 µM
N[C@H]1CC[C@@H](N[C@@H]2C[C@H]2c2ccccc2)CC1 [Example 4, (cis)-N1-((1R,2S)-2-phenylcyclopropyl)cyclohexane-1,4-diamine hydrochloride] |  |  | > 100 µM | > 40 µM
N[C@H]1CC[C@@H](N[C@H]2C[C@@H]2c2ccccc2)CC1 [Example 2, (cis)-N1-((1S,2R)-2-phenylcyclopropyl)cyclohexane-1,4-diamine hydrochloride] |  |  | > 100 µM | > 40 µM

Counter-ions that a name gives are not always drawn. Like-named read-outs stand apart in the source and are kept apart here.
